This note sets out measurements from patent US20200157223A1.

Sequences of proteins named here, by UniProt entry; tags and fusion partners are left off. Residues count along the entry.
UniProt Q9NZQ7, 19-290, chain 1 of 2: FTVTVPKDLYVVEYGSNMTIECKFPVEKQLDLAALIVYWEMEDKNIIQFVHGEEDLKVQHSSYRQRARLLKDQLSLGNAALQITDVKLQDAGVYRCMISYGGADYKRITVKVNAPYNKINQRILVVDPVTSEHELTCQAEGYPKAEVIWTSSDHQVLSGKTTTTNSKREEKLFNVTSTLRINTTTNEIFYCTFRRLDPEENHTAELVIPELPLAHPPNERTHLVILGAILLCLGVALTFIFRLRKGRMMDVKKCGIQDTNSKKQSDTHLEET
UniProt P11836, whole entry, chain 1 of 2: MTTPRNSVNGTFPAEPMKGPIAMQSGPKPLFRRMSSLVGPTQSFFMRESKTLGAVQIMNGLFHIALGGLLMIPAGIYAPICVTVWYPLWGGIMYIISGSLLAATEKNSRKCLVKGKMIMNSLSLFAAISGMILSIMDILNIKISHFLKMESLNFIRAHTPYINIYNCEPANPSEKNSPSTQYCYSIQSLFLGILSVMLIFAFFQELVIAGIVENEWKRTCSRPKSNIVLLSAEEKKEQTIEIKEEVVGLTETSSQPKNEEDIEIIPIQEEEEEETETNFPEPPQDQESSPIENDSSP

Assay [1] addresses NCI-H441 cells (PD-L1+CD47) (human) (UniProt Q9NZQ7). Put plainly: flow cytometry on IFN-γ-stimulated NCI-H441 cells.
In assay [2] the target is Raji cells (CD20+CD47) (human) (UniProt P11836). Put plainly: flow cytometry on Raji cells.

Take “Anti-PD-L1(Ate)-Fc1-D1-Fc2 (bispecific antibody)”: in assay [1], the EC50 was found to be 1.56 nM and the Maximum average fluorescence intensity was determined as 157000.

With Ofa-Fc1-D1-Fc2 (bispecific antibody), in assay [2], the EC50 turned out to be 14.1 nM and the Maximum average fluorescence intensity came to 691000.
